Measurements: PubChem BioAssay (Tox21)
Several values for one entry are separate records, joined by “and”; a condition that tells them apart may be missing. Equal entries are not always repeated. The entries are a selection whose mix differs from that of the whole data set. Results filed as inconclusive are left out. Activity calls are given as the source filed them. Calls follow the shape of the dose curve; as a rule, active = well fitted inhibition curve with a large enough effect in the repeat runs; inconclusive = weak or mixed curves; inactive = no such curve, though single readings can be large or run the other way.

Amino acid sequences for entries named in this document (tags omitted).
UniProt P05177, whole entry, looked up: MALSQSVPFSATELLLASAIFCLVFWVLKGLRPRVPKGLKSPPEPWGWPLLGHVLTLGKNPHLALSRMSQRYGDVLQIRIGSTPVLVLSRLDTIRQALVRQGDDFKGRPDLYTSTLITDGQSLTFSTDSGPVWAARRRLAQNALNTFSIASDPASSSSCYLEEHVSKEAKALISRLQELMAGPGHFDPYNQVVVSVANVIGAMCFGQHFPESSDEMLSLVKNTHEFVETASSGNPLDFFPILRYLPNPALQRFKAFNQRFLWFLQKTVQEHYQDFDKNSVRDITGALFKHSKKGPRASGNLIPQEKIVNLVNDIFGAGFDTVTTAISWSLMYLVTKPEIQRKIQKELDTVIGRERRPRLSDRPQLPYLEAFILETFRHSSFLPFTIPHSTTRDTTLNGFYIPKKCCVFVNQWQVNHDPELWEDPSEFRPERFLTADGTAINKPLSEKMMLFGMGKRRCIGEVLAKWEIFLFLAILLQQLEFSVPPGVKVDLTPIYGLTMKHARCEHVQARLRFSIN

biological target: Cytochrome P450 1A2 (Homo sapiens) (UniProt P05177); experiment: Cytochrome P450 Family 1 Subfamily A Member 2 (CYP1A2) small molecule antagonists: luciferase reporter qHTS assay (AID 1671199); settings: P450-Glo CYP1A2 enzyme, luciferin luminescence, 1 h; also: nearly all actives have a fitted effect of over 50% in size
How it was run: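 P450-Glo CYP1A2 enzyme–proluciferin substrate mix with compound 10 min at room temperature, then NADPH regeneration 1 h at room temperature. Luciferin detection reagent added, luminescence read after 20 min; furafylline positive control.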
Potency is read from the fitted curve at half-maximal effect.

| Structure (SMILES) | Potency |
| --- | --- |
| CC(C)Cn1cnc2c(N)nc3ccccc3c21 | active: 5.6 µM |
| CN(C)c1ccc2nc3ccc(=[N+](C)C)cc-3sc2c1 | active: 1.53 µM and active: 2.52 µM and active: 1.82 µM |
| COc1cc(NC(C)CCCN)c2ncccc2c1 (stereo not drawn) | active: 0.436 µM |
